Test results reported in US8198311B2, “Modulators of glucocorticoid receptor, AP-1, and/or NF-κB activity and use thereof” (Bristol-Myers Squibb Company, priority 2006, dated 2012).

By UniProt entry, the sequences of proteins in these tests, tags left out.
UniProt P04150, whole entry: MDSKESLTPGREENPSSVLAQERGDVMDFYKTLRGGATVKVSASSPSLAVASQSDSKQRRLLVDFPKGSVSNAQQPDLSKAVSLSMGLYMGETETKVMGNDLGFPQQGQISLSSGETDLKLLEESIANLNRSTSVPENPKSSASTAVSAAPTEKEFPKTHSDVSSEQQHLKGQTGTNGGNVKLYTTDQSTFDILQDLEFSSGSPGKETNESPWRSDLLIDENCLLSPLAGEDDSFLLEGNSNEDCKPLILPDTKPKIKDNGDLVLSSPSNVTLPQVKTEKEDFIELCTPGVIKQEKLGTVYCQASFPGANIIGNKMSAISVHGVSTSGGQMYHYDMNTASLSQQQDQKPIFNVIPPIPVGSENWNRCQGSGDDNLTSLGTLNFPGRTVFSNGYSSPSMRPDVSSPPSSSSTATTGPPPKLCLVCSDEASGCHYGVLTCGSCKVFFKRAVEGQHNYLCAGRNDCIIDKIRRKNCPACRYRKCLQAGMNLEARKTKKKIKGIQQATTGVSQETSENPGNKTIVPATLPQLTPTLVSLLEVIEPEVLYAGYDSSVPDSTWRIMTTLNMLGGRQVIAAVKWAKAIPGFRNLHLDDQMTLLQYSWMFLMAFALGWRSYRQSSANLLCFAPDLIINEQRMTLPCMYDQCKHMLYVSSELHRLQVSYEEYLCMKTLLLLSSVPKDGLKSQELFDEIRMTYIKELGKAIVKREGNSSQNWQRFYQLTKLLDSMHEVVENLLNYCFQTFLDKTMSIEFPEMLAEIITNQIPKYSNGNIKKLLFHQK

What was measured:
[1] = tested on: AP-1 induced transcriptional activity; experiment: Cellular Transrepressional Assay (AP-1 luciferase reporter in A549 cells, PMA-activated); conditions: read-out: AP-1 (EC50, nM) (Cellular Transrepression Assay), pAP-1-Luc, 10 ng/ml PMA, 7 hours
Protocol: To measure the ability of test molecules to inhibit AP-1 induced transcriptional activity an A549 cell was utilized which was stably transfected with a plasmid containing 7×AP-1 DNA binding sites (pAP-1-Luc plasmid, Stratagene Co. La Jolla, Calif.) followed by the gene for luciferase. Cells were activated with 10 ng/ml of phorbol myristic acid (PMA) plus or minus test molecules for 7 hours. After 7 hours a luciferase reagent was added to measure luciferase enzymatic activity in the cell. After a 10 minute incubation of luciferase reagent with cells, luminescence was measured in a TopCount luminescence counter. Repression of AP-1 activity was calculated as the percentage decrease in the signal induced by PMA alone. Test molecules were analyzed in the concentration range from 0.1 nM to 40 μM. EC50s were determined by using standard curve fitting methods such as Excel fit (Microsoft Co.). An EC50 is the test molecule concentration at which there is a 50% repression of the maximal inhibition of transcription, i.e. a 50% reduction of AP-1 activity. In the absence of an EC50 the maximum % inhibition recorded is the inhibition of AP-1 at a compound concentration of 10 micromolar.

[2] = biological target: human glucocorticoid receptor (Homo sapiens, UniProt P04150); experiment: Glucocorticoid Receptor Binding Assay (I), fluorescence polarization competitor kit (Fluormone GS Red); conditions: read-out: GR (Ki, nM) (GR Binding Assay (I)), purified human recombinant full-length GR

Row | Structure (SMILES) | EC50 [1] | Ki [2]
1 | CC[C@H](C)NC(=O)NCC(C)(C)C(CC(C)C)c1ccc2c(cnn2-c2ccc(F)cc2)c1 (stereo partly shown) | 78 nM | 2.7 nM
2 | CC[C@@H](C)NC(=O)NCC(C)(C)C(CC(C)C)c1ccc2c(cnn2-c2ccc(F)cc2)c1 (stereo partly shown) | 171 nM | 1.8 nM
